SMILES strings stand for the structures. The list shows a part of the results.

The assay deals with A. baumannii ATCC 17978. In words: relative growth (fraction of control); higher = less inhibition. The settings on record: 50 µM.
For the compound `COc1ccccc1O`, the relative growth was 0.939.
With `O=C(C[C@H]1C=C[C@@H](NC(=O)CN2CCOCC2)[C@H](CO)O1)NC1CCC1`, the relative growth amounted to 0.951.
In turn, `CCOC(=O)C1=C[C@]2(CC)CCCN3CCc4c(n1c1ccccc41)[C@@H]32` registered a relative growth of 1.06.
With `CC(=O)c1cc2c(cc1O)OC(C)(C)C=C2` the figure was 1.1; with `CCC(CCC(C)[C@H]1CCC2C3CC=C4C[C@@H](OC(C)=O)CC[C@]4(C)C3CC[C@@]21C)C(C)C` (some centres not stated), 1.15; with `O=C(O)[C@@H]1CCCN1`, 0.929.
With `C#C[C@]1(O)CCC2C3CCC4=CC(=O)CC[C@@H]4C3CC[C@@]21C` (some centres not stated) the figure was 1.07.
Then `COC(=O)[C@H]1CCCNC1=O`, with 1.1; and `O=C(C[C@H]1CC[C@H]2[C@@H](COC[C@@H](O)CN2C(=O)C2CC2)O1)NCc1ccncc1`, with 1.02; and `COc1ccc(-c2coc3cc(OC)ccc3c2=O)c(O)c1`, with 0.972.
`C=CCn1c(=O)c2c(nc(NCCO)n2C)n(C)c1=O`: the relative growth was determined as 0.92.
Then `O=C(C[C@H]1C=C[C@H](NC(=O)c2cccc(F)c2)[C@H](CO)O1)NCCN1CCCC1`, with 1.1; and `COc1ccc(S(=O)(=O)N(C)C[C@@H]2Oc3c(NC(=O)Nc4cccc5ccccc45)cccc3C(=O)N([C@@H](C)CO)C[C@@H]2C)cc1`, with 0.961.
Then `Nc1nc(=O)c2ncn(CCC(CO)CO)c2[nH]1`, with 1; and `CNC(=O)Cn1cc2c(n1)CC[C@H](C)C2`, with 0.97.
With `C=CCOC(=O)[C@H]1[C@@H]2C(=O)O[C@@H](c3ccccc3)[C@@H](c3ccccc3)N2[C@@H](c2ccc(OCCOC(=O)[C@@H]3C[C@@H]4C(=O)NCC(=O)N4[C@@H]3c3cccc(OCCO)c3)cc2)[C@]12C(=O)Nc1ccc(I)cc12` the figure was 1.01; with `COc1ccc(-c2cc(=O)c3c(O)cc(O[C@@H]4O[C@H](CO[C@@H]5O[C@@H](C)[C@H](O)[C@@H](O)[C@H]5O)[C@@H](O)[C@H](O)[C@H]4O)cc3o2)cc1O`, 0.964.
For the compound `N=C(NO)c1ccccc1N`, the relative growth turned out to be 0.909.
With `COc1cccc(S(=O)(=O)N2C[C@@H](O)COC[C@@H]3O[C@H](CC(=O)N4CCOCC4)CC[C@H]32)c1` the figure was 0.903; with `CC1(C)S[C@@H]2[C@H](NC(=O)[C@H](N)c3ccccc3)C(=O)N2[C@H]1C(=O)[O-].[Na+]`, 1.13; with `CC(=O)OC(C)C[N+](C)(C)C.[Cl-]` (configuration not stated), 1.21.
The compound `Cn1cnc(S(=O)(=O)N[C@H]2C=C[C@@H](CC(=O)Nc3ccccc3)O[C@H]2CO)c1` showed a relative growth of 0.981.
On to `CC[C@@H](Sc1n[nH]c(=O)[nH]c1=O)C(=O)O`, for which the relative growth was determined as 0.854.
Then `CO[C@H]1CN(C)C(=O)c2ccc(NS(=O)(=O)CC(F)(F)F)cc2OC[C@@H](C)N(Cc2nccs2)C[C@@H]1C`, with 0.989; and `C/C=N/N(C)C=O`, with 0.972; and `Nc1ccc(-c2nn[nH]n2)cc1F`, with 0.894.
Then `Cc1ccc(/C=N/c2ccccc2Sc2c(C)n[nH]c2C)cc1`, with 0.982; and `Cn1c(=O)cc(N2CCC[C@@H](N)C2)n(Cc2ccccc2C#N)c1=O`, with 1.01.
With `CO[C@@H]1CN(C)C(=O)c2cc(NS(=O)(=O)CC(F)(F)F)ccc2OC[C@@H](C)N(Cc2ccccn2)C[C@@H]1C` the figure was 1.05; with `CC(=C/C(=O)O)/C=C/c1ccccc1`, 0.9; with `COc1ccccc1-c1ccc2c(c1)O[C@@H](CN(C)S(=O)(=O)c1ccccc1)[C@@H](C)CN([C@H](C)CO)S2(=O)=O`, 1.19.
For `C=CCC[C@@H](Cc1ccc(F)cc1)C(=O)OC[C@@H](Cc1c[nH]c2ccccc12)NC(=O)[C@H](CC=C)CC(=O)N[C@@H](CO)Cc1ccccc1`, the relative growth amounted to 1.01.
With `NC[C@H]1O[C@H](O[C@H]2[C@H](O)[C@@H](O[C@H]3O[C@H](CO)[C@@H](O)[C@H](N)[C@H]3O)[C@H](N)C[C@@H]2N)[C@H](N)C[C@@H]1O` the figure was 0.148.
Then `CC(C)c1onc(-c2c(Cl)cccc2Cl)c1COc1ccc(C=Cc2cccc(C(=O)O)c2)c(Cl)c1`, with 1.81; and `Cn1cc(S(=O)(=O)Nc2ccc3c(c2)OCCO3)c(=O)n(C)c1=O`, with 0.909.
Then `Cc1cc(C2CCCCC2)n(O)c(=O)c1.NCCO`, with 0.157; and `C[C@]12CCC3c4ccc(O)cc4CCC3C1C[C@@H](O)[C@@H]2O` (some centres not stated), with 0.946.
`C=C1C[C@]23C[C@@]1(O)CC[C@H]2[C@@]12C=C[C@H](O)[C@@](C)(C(=O)O1)[C@H]2[C@@H]3C(=O)O` yielded a relative growth of 1.15.
With `C=CCC[C@@H](Cc1ccc(F)cc1)C(=O)OC[C@@H]1CCCN1C(=O)[C@@H](CC=C)CC(=O)N(CCO)Cc1ccccc1` the figure was 0.822; with `Cc1ccc(NC(=O)C[C@H]2NCCNC2=O)cc1`, 1.15.
With `Cc1onc(-c2ccccc2)c1C(=O)NC1C(=O)N2[C@@H]1SC(C)(C)[C@@H]2C(=O)[O-].[Na+]` (some centres not stated) the figure was 0.924; with `O=C(C[C@@H]1C=C[C@@H](NS(=O)(=O)c2ccc(F)cc2)[C@@H](CO)O1)NCCN1CCCCC1`, 1.02.
`O=c1cccc(/C=C/c2ccc3c(c2)OCO3)o1` [6-(3,4-METHYLENEDIOXYSTYRYL)-alpha-PYRONE] gave a relative growth of 0.91.
On to `COc1ccc([Si](C)(C)[C@H]2[C@H](CC(=O)N3Cc4ccccc4C[C@H]3CO)O[C@@]3(C(=O)N(C)c4c(Br)cc(C)cc43)[C@@H]2C)cc1`, for which the relative growth came out at 1.07.
For the compound `COc1ccc(-c2cnc3c(c2)C(=O)N([C@H](C)CO)C[C@H](C)[C@@H](CN(C)S(=O)(=O)c2ccc(OC)cc2)O3)cc1`, the relative growth worked out at 0.99.
With `c1ccc2[nH]c(-c3cscn3)nc2c1` the figure was 0.886; with `CC(=O)O[C@@H]1C[C@@]23C[C@@]24CC[C@H](O[C@@H]2OC[C@@H](O)[C@H](O)[C@H]2O)C(C)(C)C4CCC3[C@]2(C)C[C@@H]3OC4(C[C@@H](C)[C@@H]3[C@@]12C)O[C@H](O)[C@]1(C)O[C@H]41` (some centres not stated), 0.834.
`O=C(O)c1ccc(Nc2cn[nH]c(=O)n2)cc1O` came in with a relative growth of 1.04.
As for `C[C@H](CO)N1C[C@H](C)[C@@H](CN(C)C(=O)Cc2ccncc2)Oc2cc(C#CC3CCCC3)ccc2S1(=O)=O`, the relative growth stood at 0.814.
With `COc1ccccc1CNC(=O)C[C@@H]1C[C@H]2c3cc(NC(=O)Nc4ccc(C(F)(F)F)cc4)ccc3O[C@H]2[C@H](CO)O1` the figure was 0.975.
As for `CCCNC(=O)Nc1ccc2c(c1)OC[C@@H](C)N(Cc1ccc(-c3ccccn3)cc1)C[C@@H](C)[C@@H](OC)CN(C)C2=O`, the relative growth came out at 1.15.
Then `CCCn1c(=O)c(C#N)cn(C2CC2)c1=O`, with 0.99.

These data come from published antibiotic growth screens (doi:10.1038/s41589-023-01349-8).
